Assay results reported in patent publication US4672036A, “Pure cultures of Kibdelsporangium aridum Shearer gen. nov., sp. nov. ATCC 39323 and mutants thereof” (SmithKline Beckman Corporation, priority 1985, dated 1987).

Tests used:
Swine in vitro model = test: swine in vitro model (growth promotant activity); conditions: 1.67 ppm
rumen in vitro model = rumen in vitro model (growth promotant activity); design: species or system steer; conditions: for LYS (lysine): 50.0 ppm

Compound | GLU (glucose) (Swine in vitro model) [% Control] | LAC (L-lactic acid) (Swine in vitro model) [% Control] | VFA (total of volatile fatty acids) (rumen in vitro model; 5.0 ppm) [% Control] | LYS (lysine) (rumen in vitro model) [% Control]
CN[C@H](CC(C)C)C(=O)N[C@H]1C(=O)N[C@@H](CC(N)=O)C(=O)N[C@H]2C(=O)N[C@H]3C(=O)N[C@H](C(=O)N[C@H](C(=O)O)c4cc(O)cc(O)c4-c4cc3ccc4O)[C@H](O)c3ccc(c(Cl)c3)Oc3cc2cc(c3O[C@@H]2O[C@H](CO)[C@@H](O)[C@H](O)[C@H]2O[C@H]2C[C@](C)(N)[C@H](O)[C@H](C)O2)Oc2ccc(cc2Cl)[C@H]1O [Vancomycin, reference compound] | 100 | 99 | 108 | 97
Avoparcin |  |  |  | 97
